From patent US20250186419A1, “DOSING REGIMENS FOR TREATING PAIN” (VERTEX PHARMACEUTICALS INCORPORATED, priority 2023, published 2025) come the findings set out here.

For the data set, the system named is painful diabetic peripheral neuropathy (DPN). The data set can be described thus: Randomized, double-blind, active-controlled, dose-ranging, 4-arm study of Compound 1 in painful diabetic peripheral neuropathy (Example 8). Conditions: Compound 1 combined dose groups; pregabalin 100 mg tid; 12 weeks. The text has this:
The study population included male and female subjects 18 through 80 years of age, inclusive, with presence of bilateral pain in lower extremities due to DPN for at least 1 year, and weekly average Numeric Pain Rating Scale (NPRS) pain score of ≥4.
Subjects who met eligibility criteria entered a 7-day Run-in Period to establish their baseline Numeric Pain Rating Scale (NPRS) pain score and Daily Sleep Interference Scale (DSIS) score. Subjects with a baseline average NPRS score of ≥4 points with limited variation (SD<25% of mean) were eligible for the 12-week Treatment Period followed by a Safety Follow-up Visit.
Randomization was stratified by sex (female and male) and body mass index (≥30 and <30 kg/m^2). To maintain the blind, all subjects received the same number of tablets once daily (qd) in the morning and the same number of capsules 3 times per day (tid) in a double-dummy design. […]
Daily Sleep Interference Scale (DSIS): Pain frequently interferes with sleep, and sleep is important to quality of life. […] DSIS is commonly used in neuropathic pain studies and is assessed on an 11-point scale. […]
Patient Global Impression of Change (PGIC): The PGIC is commonly used in neuropathic pain studies, and the Initiative on Methods, Measurement, and Pain Assessment in Clinical Trials (IMMPACT) group recommends it as a core outcome measure for chronic pain studies and is thus evaluated in this study.

The structures appear in SMILES notation.

With `CC(C)C[C@H](CN)CC(=O)O` [Pregabalin, reference compound], the “Incidence of creatinine clearance decrease (adverse event)” value stood at 1.9%.
